PubChem BioAssay (EPA / NIEHS)
Values joined by “and” are separate entries in the source; they are usually repeats but may differ in a detail not shown here. Equal values may be shown once. The entries are a selection whose mix differs from that of the whole data set. Results filed as inconclusive are left out. Where a structure was tested more than once in an assay, its records may differ in their call. Active and inactive are the calls of the source. How the source made its calls, unless noted: active means hit-call score of the fitted dose curve at least 0.9, where 1 is the maximum; inactive means score below 0.9.

Legend:
DIO2 (gene 1734) = assay: CCTE_GLTED_hDIO2: CCTE's human Deiodinase 2 (DIO2) Inhibition Assay, Great Lakes Toxicology and Ecology Division (GLTED) Lab (AID 2284050; active means hit-call score of the fitted dose curve at least 0.9, where 1 is the maximum)
Procedure: CCTE_GLTED_hDIO2 is a cell-free, single-readout assay designed to test the inhibitory activity of chemicals toward human iodothyronine Deiodinase type 2 (DIO2) enzyme. Enzyme is incubated in presence of test chemical for 3 hours during which uninhibited enzyme liberates free iodide from substrate. Free iodide is measured in a second step using the Sandell-Kolthoff method.CCTE_GLTED_hDIO2 is the assay component measured from the CCTE_GLTED_hDIO2 assay. It is designed to make measurements of enzyme activity, a form of enzyme reporter, as detected with absorbance signals by spectrophotometry.Data from the assay component CCTE_GLTED_hDIO2 was analyzed into 1 assay endpoint. This assay endpoint, CCTE_GLTED_hDIO2, was analyzed in the positive analysis fitting direction relative to DMSO as the negative control and baseline of activity. […] Furthermore, this assay endpoint can be referred to as a primary readout, because the performed assay has only produced 1 assay endpoint. […]
Human deiodinase type 2 (hDIO2) assay, developed at Great Lakes Toxicology and Ecology Division (GLTED) within the EPA's Center for Computational Toxicology and Exposure (CCTE), is designed to test the chemicals' ability to inhibit DIO2. Assay is based on iodide release measured by the Sandell-Kolthoff method and is run in 96-well plate format with assay plates run in triplicate (n=3). […]

[1] = CCTE_Shafer_MEA_acute_AB: CCTE's Alamar Blue Assay for Cytotoxicity in the Neural Acute Assay, Shafer Lab (AID 2284069; active means hit-call score of the fitted dose curve at least 0.9, where 1 is the maximum;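 further: active compounds lower the viability signal compared with DMSO wells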)
Procedure: (§1) CCTE_Shafer_MEA_acute assay is conducted using Axion Biosystems 48 well microelectrode array (MEA) plates and Maestro recording system. Each well of the MEA plate contains a grid of 16 microelectrodes embedded in the culture surface. Electrically active cells, such as neurons, can be cultured over the electrodes, and electrical activity in these cells can be recorded extracellularly. The spontaneous firing of neurons is captured from each electrode on a microsecond timescale providing both temporally and spatially precise data. […] The CCTE_Shafer_MEA_acute assay uses primary cultures of rat cortical neurons. As these cultures mature over time, neural networks develop functional activity and form cohesive networks in which electrical activity can be highly coordinated. Baseline 40-minute recordings are made on days post-plating 13 or 15, followed by a secondary 40-minute recording after chemical exposure.CCTE_Shafer_MEA_acute_AB is a component of the CCTE_Shafer_MEA_acute assay. It measures the resazurin reduction using fluorescence.Data from the assay component CCTE_Shafer_MEA_acute_AB was analyzed into 1 assay endpoint. This assay endpoint, CCTE_Shafer_MEA_acute_AB, was analyzed in the positive analysis fitting direction relative to DMSO as the negative control and baseline of activity. Using a type of viability reporter, loss-of-signal activity can be used to understand cell viability.
Metabolic activity was determined using the CellTiter Blue (CTB) assay (Promega Cat. #8081), following the manufacturer's instructions with the following modifications. Following the removal of the 50 uL sample for the LDH assay, 450 uL of media was removed from each well and replaced with 200 uL of fresh media containing a 1:6 dilution of CTB reagent for the determination of metabolic activity. Fluorescence was measured in a Fluorostar Optima fluorimeter using an excitation wavelength of 544 nm and an emission wavelength of 590 nm.

[2] = CCTE_Shafer_MEA_dev_network_spike_number: CCTE's Neural Network Formation Assay for Number of Network Spikes, Shafer Lab (AID 2284048);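 further: synchronized bursts across electrodes counted on days 5 7 9 12 and integrated as AUC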;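 on AC50: fit as a loss of signal meaning fewer network spikes than DMSO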
Procedure, shortened: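 Developing networks of primary rat cortical neurons are treated over 12 days starting at plating, with media and compound fully replaced on DIV 5 and 9. Network spike counts from four recording days are integrated as trapezoidal AUC.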

[3] = CCTE_Shafer_MEA_dev_network_spike_peak: CCTE's Neural Network Formation Assay for Mean Number of Electrodes in Network Spike, Shafer Lab (AID 2284049);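 on AC50: fitted for loss of signal meaning fewer electrodes in network spikes than DMSO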
Procedure, shortened: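 Rat cortical primary culture, 1.5 x 10^5 cells/well, 48-well MEA (16 electrodes/well). Dosing day 0 through DIV 12, full media/compound exchange DIV 5, 9. AxIS adaptive spike detection; AUC over days 5/7/9/12; loss-of-signal vs DMSO.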

[4] = CCTE_Shafer_MEA_dev_spike_duration_mean: CCTE's Neural Network Formation Assay for Mean Spike Duration, Shafer Lab (AID 2284051);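 further: mean network spike duration pooled as area under curve over DIV 5 to 12 recordings; potency for a decrease in mean network spike duration versus DMSO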
Procedure, shortened: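 Spontaneous activity was recorded on days 5, 7, 9 and 12 from rat cortical cultures grown on microelectrode arrays and dosed continuously from day 0, with media and compound renewed after the DIV 5 and 9 recordings. Network-spike duration was collapsed by area under the curve.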

[5] = CCTE_Shafer_MEA_dev_network_spike_duration_std: CCTE's Neural Network Formation Assay for Standard Deviation of Network Spike Duration, Shafer Lab (AID 2284052);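 further: hits are decreases in network spike duration SD versus DMSO vehicle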
Procedure, shortened: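 Network spike duration variability was collapsed across recordings on days 5, 7, 9 and 12 by trapezoidal area-under-curve and fitted downward against DMSO. Cultures were rat cortical neurons on PEI-coated MEA plates, dosed continuously from plating, refed with compound DIV 5/9.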

[6] = CCTE_Shafer_MEA_dev_per_network_spike_spike_number_mean: CCTE's Neural Network Formation Assay for Mean Number of Spikes in a Network Spike, Shafer Lab (AID 2284053);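 on AC50: fitted as decrease in spikes per network spike relative to DMSO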
Procedure, shortened: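 Mean spike count within each network spike, taken in a 0.05 s window at its peak, was recorded on days 5, 7, 9 and 12 and integrated as trapezoidal area under the curve. Rat cortical cultures on MEA plates received continuous compound from day 0, refreshed at medium changes on DIV 5 and 9.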

[7] = CCTE_Shafer_MEA_dev_per_network_spike_spike_percent: CCTE's Neural Network Formation Assay for Percent of Spikes in a Network Spike, Shafer Lab (AID 2284054)
Procedure: CCTE_Shafer_MEA_dev assay is conducted using Axion Biosystems 48 well microelectrode array (MEA) plates and Maestro recording system. Each well of the MEA plate contains a grid of 16 microelectrodes embedded in the culture surface. Electrically active cells, such as neurons, can be cultured over the electrodes, and electrical activity in these cells can be recorded extracellularly. The spontaneous firing of neurons is captured from each electrode on a microsecond timescale providing both temporally and spatially precise data. […] The CCTE_Shafer_MEA_dev assay uses primary cultures of rat cortical neurons. Recordings are made on days post-plating 5, 7, 9 and 12. As these cultures mature over time, neural networks develop functional activity and form cohesive networks in which electrical activity can be highly coordinated. CCTE_Shafer_MEA_dev_per_network_spike_spike_percent is 1 of 19 assay components of the CCTE_Shafer_MEA_dev assay. It measures the percent of spikes (action potential firings) in a network spike (temporally-clustered group of spikes across multiple electrodes) as the number of spikes that occur within a 0.05 s time window at the peak of a network spike divided by the total number of spikes during a recording in a microelectrode array (MEA) using Axion Biosystems Maestro 768 channel amplifier with the AxIS adaptive spike detector. To collapse across multiple recordings made on days post-plating 5, 7, 9 and 12, the trapezoidal area-under-the-curve of the component is calculated.Data from the assay component CCTE_Shafer_MEA_dev_per_network_spike_spike_percent was analyzed into 1 assay endpoint. This assay endpoint, CCTE_Shafer_MEA_dev_per_network_spike_spike_percent, was analyzed in the negative analysis fitting direction relative to DMSO as the negative control and baseline of activity. Using a type of functional reporter, gain or loss-of-signal activity can be used to understand electrical activity. […]

[8] = CCTE_Shafer_MEA_dev_LDH: CCTE's Lactate Dehydrogenase Assay for Cytotoxicity in the Neural Network Formation Assay, Shafer Lab (AID 2284068; active means hit-call score of the fitted dose curve at least 0.9, where 1 is the maximum;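 further: exposure for twelve days from plating with re-dosing on DIV 5 and 9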)
Procedure, shortened: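 Primary rat cortical neurons were cultured on PEI-coated MEA plates and exposed from plating through day 12, with compound renewed at medium changes on DIV 5 and 9. LDH activity was read spectrophotometrically; loss of signal versus DMSO indicates reduced viability.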

[9] = CCTE_Shafer_MEA_dev_AB: CCTE's Alamar Blue Assay for Cytotoxicity in the Neural Network Formation Assay, Shafer Lab (AID 2284083; active means hit-call score of the fitted dose curve at least 0.9, where 1 is the maximum;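 further: twelve days of exposure from plating with re-dosing on DIV 5 and 9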)
Procedure: as §1, with “CCTE_Shafer_MEA_dev” for “CCTE_Shafer_MEA_acute”, “neurons. Recordings are made on days post-plating 5, 7, 9 and 12.” for “neurons.”, “CCTE_Shafer_MEA_dev_AB” for “Baseline 40-minute recordings are made on days post-plating 13 or 15, followed by a secondary 40-minute recording after chemical exposure.CCTE_Shafer_MEA_acute_AB”, “1 of 19 assay components” for “a component”, “CCTE_Shafer_MEA_dev_AB” for “CCTE_Shafer_MEA_acute_AB”, “CCTE_Shafer_MEA_dev_AB,” for “CCTE_Shafer_MEA_acute_AB,”
On the day prior to culture, each well was coated thoroughly with 150 uL of 0.05% polyethyleneimine (PEI, Sigma Cat P3143) in 50 mM HEPES (Sigma Cat H7523) at a pH of 8. The plate was incubated at 37C for one hour. PEI was rinsed out with 500 uL of sterile water three times. Plates were stored at 4C until the day of culture. This culture was plated at a seeding density of 1.5 x 10^5 cells/well on a 48-well MEA plate, prepared as described above. Cells were administered via a 25 uL media/laminin (20 ng/ml; Sigma Cat L2020-1MG) drop directly onto the microelectrode array, as adding the cells with the laminin results in better attachment than pre-coating with laminin. After 2 hours, an additional 475 uL of cortical media was added and the cells returned to the incubator. […]

Measured: AC50

O=C1C2CC=CCC2C(=O)N1SC(Cl)(Cl)C(Cl)Cl (centres undefined)
inactive: [1]
active: DIO2 (gene 1734) 50.4 µM

CC(C)OP(=S)(OC(C)C)SCCNS(=O)(=O)c1ccccc1
active: [2] 15.9 µM | [3] 50 µM and 11.8 µM | [4] 20 µM and 10.5 µM | [5] 10.8 µM and 9.46 µM | [6] 50 µM and 13.4 µM | [7] 11.2 µM and 24.3 µM | [8] 35.3 µM and 29.4 µM | [9] 67.3 µM and 67.5 µM
inactive: [2] | [1]

CC(C)OP(=O)(OC(C)C)SCCNS(=O)(=O)c1ccccc1
active: [4] 50 µM | [7] 29.7 µM | [8] 71.3 µM
not listed: DIO2 (gene 1734) | [1]
inactive: all other assays above

CN(C(=O)Cc1cccc2occc12)[C@H]1CC[C@@]2(CCCO2)C[C@@H]1N1CCCC1
active: [3] 1.98 µM | [4] 10 µM | [8] 10 µM
not listed: DIO2 (gene 1734)
inactive: all other assays above
